Chains of the proteins cited; added tags and fusions are not shown.
UniProt Q01827, whole entry: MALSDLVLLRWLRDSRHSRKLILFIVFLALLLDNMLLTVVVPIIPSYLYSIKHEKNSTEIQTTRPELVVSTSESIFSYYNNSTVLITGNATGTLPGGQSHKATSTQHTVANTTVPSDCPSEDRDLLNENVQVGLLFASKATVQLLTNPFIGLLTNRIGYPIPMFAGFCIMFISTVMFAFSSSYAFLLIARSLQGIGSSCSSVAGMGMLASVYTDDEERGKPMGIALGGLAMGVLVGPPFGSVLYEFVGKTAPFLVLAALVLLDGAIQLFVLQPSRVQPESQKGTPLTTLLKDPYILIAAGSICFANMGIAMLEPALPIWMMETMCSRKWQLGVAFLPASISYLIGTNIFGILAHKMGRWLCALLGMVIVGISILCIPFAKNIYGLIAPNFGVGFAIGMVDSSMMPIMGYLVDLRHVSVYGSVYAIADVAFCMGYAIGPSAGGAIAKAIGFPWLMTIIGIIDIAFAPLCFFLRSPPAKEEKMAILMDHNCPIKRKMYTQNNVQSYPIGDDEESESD

In patent US10857137B2, “Methods for the administration of certain VMAT2 inhibitors” (Neurocrine Biosciences, Inc., priority 2017, dated 2020):

Molecular target: T1, VMAT2 (Rattus norvegicus, UniProt Q01827)
T1 construct: from tissue; host or cells: rat forebrain membranes
Test: Inhibition of [3H]-DHTBZ binding to rat forebrain membranes

Compound | VMAT2 inhibition, in words | affinity, times weaker than R,R,R-DHTBZ
COc1cc2c(cc1OC)[C@H]1C[C@@H](O)[C@H](CC(C)C)CN1CC2 [R,R,R-DHTBZ, (2R,3R,11bR)-3-isobutyl-9,10-dimethoxy-1,3,4,6,7,11b-hexahydro-2H-pyrido[2,1-a]isoquinolin-2-ol] | most potent inhibitor of VMAT2 | –
COc1cc2c(cc1OC)[C@@H]1C[C@@H](O)[C@@H](CC(C)C)CN1CC2 [R,S,S-DHTBZ] | poor VMAT2 inhibitors | ~160 times
COc1cc2c(cc1OC)[C@@H]1C[C@H](O)[C@@H](CC(C)C)CN1CC2 [S,S,S-DHTBZ] | poor VMAT2 inhibitors | approximately 60 times
